The nature of this data set: Hydrodynamic diameter by Nanoparticle Tracking Analysis. Conditions: PBS. Type of data set: physicochemical. The method, then: The mean hydrodynamic diameter of the PGA conjugates was evaluated using a real time particle analyzer (NanoSight LM20™) containing a solid-state, single mode laser diode (<20 mW, 655 nm) configured to launch a finely focused beam through a 500 μl sample chamber. The tested conjugate was dissolved in PBS to a final concentrations of 9.9 mg/ml. The samples were then injected into the chamber by syringe and allowed to equilibrate to a unit temperature (23° C.) for 30 seconds. The particles dynamics were visualized at 30 frames per second (fps) for 60 seconds at 640×480 resolution by the device CCD camera. The paths the particles take under Brownian motion over time were analyzed using Nanoparticle Tracking Analysis (NTA) software. […] Each sample was measured three times in triplicates, and the results represent the mean diameter.

Here are results for 1 substance from patent US9259482B2, “Conjugates of polymers having a therapeutically active agent and an angiogenesis targeting moiety attached thereto and uses thereof in the treatment of angiogenesis related diseases” (Ramot at Tel-Aviv University Ltd., priority 2008, dated 2016).

Take “PGA-Copolymer -E-c(RGDfk)2-Paclitaxel [PGA-PTX-E-[c(RGDfk)2]]”: the mean hydrodynamic diameter result is “about 40 nm” (conjugate with PTX loading of 2.6 mol % and -E-c(RGDfk)2 loading of 5 mol %, FIG. 9B); “about 30 nm” (conjugate with PTX loading of 5.5 mol % and -E-c(RGDfk)2 loading of 3.9 mol %, FIG. 9A).
